Biological target: PSMA (Homo sapiens, UniProt Q04609)
Experiment: PSMA binding, fluorescence polarization assay
Settings: read-out: FP(h) ki
Experimental: PSMA binding was measured using the fluorescence polarization assay methodology described in Shen et al (2013) PLOS ONE 8(7), […] and PSMA enzyme inhibition was measured using the methodology described in WO 2009/070302.
The peptide ligands of the invention were tested in the above mentioned PSMA binding and enzyme inhibition assays and the results are shown in Table 1: […]

The chains behind the UniProt entries cited, without tags or fusion partners.
UniProt Q04609, whole entry: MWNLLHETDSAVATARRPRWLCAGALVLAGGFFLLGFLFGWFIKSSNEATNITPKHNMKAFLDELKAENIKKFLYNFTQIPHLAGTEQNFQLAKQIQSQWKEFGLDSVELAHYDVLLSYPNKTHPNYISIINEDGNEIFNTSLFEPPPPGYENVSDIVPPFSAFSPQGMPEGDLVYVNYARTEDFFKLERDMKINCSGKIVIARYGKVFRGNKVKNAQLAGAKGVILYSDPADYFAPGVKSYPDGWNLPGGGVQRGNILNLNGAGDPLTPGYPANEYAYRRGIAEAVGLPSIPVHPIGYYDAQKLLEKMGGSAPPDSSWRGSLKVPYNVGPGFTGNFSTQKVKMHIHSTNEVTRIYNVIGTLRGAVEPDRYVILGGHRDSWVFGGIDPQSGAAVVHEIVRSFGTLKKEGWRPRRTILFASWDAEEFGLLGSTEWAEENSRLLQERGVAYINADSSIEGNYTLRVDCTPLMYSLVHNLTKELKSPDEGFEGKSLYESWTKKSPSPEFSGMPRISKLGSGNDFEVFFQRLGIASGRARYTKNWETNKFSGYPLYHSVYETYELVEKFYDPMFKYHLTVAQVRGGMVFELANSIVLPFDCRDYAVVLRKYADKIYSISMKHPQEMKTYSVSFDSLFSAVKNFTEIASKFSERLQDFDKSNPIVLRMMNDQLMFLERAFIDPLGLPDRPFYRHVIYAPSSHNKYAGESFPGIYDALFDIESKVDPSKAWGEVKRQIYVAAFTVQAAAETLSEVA

## (B-Ala)-Sar5-AC(Nle)VCH(Nle)(Nle)EDGTC [21-31-N008]
  Ki: 1360 nM

Source: US12377155B2, “Bicyclic peptide ligands specific for PSMA” (BicycleRD Limited, priority 2018, dated 2025)
